Reference: US20230405002A1, “COMBINATIONS OF DIACYLGLYCEROL ACYLTRANSFERASE 2 INHIBITORS AND ACETYL-COA CARBOXYLASE INHIBITOR” (Pfizer Inc., priority 2020, published 2023)

Tested on: adults with non-alcoholic fatty liver disease (NAFLD)
Conditions: NAFLD patients; ACCi 15 mg BID, DGAT2i 300 mg BID

Compound: COc1cc(C(=O)N2CCC3(CC2)CC(=O)c2c(cnn2C(C)C)C3)cc(-c2ccc(C(=O)O)cc2)n1 [Compound A, 4-(4-(1-isopropyl-7-oxo-1,4,6,7-tetrahydrospiro[indazole-5,4′-piperidine]-1′-carbonyl)-6-methoxypyridin-2-yl)benzoic acid]
- subjects exceeding triglyceride threshold >400 mg/dl, total number (%): 11 (37.9) n (%)
- subjects exceeding triglyceride threshold >600 mg/dl, total number (%): 4 (13.8) n (%)
- subjects exceeding triglyceride threshold >800 mg/dl, total number (%): 3 (10.3) n (%)
